Measured values from US20160333020A1, “7-BETA ANALOGS OF ORVINOLS” (published 2016).

Key:
μ-opioid receptor [1] = biological target: T1, μ-opioid receptor (Homo sapiens, UniProt P35372); test: [35S]GTPγS functional assay, μ-opioid receptor, HEK-293 cells; conditions: for μ Emax (%): maximal effect relative to DAMGO, Table 1; for EC50: read-out: μ EC50 (μM), μ GTP EC50, Table 1
κ-opioid receptor = κ-opioid receptor (Homo sapiens, UniProt P41145); test: [35S]GTPγS functional assay, κ-opioid receptor, U-2 OS cells
μ-opioid receptor [2] = biological target: T1, μ-opioid receptor; test: [35S]GTPγS functional assay, μ-opioid receptor, U-2 OS cells

`CO[C@]12CC[C@@]3(C[C@H]1COCc1ccccc1)[C@H]1Cc4ccc(O)c5c4[C@@]3(CCN1CC1CC1)[C@H]2O5` was tested, and the “μ Emax (%)” value (μ-opioid receptor [1]) was 97.0 ± 5.44% and the EC50 (μ-opioid receptor [1]) was > 20 µM.

In the case of `COc1ccc2c3c1O[C@H]1[C@@]4(OC)CC[C@@]5(C[C@H]4COCc4cc6ccccc6s4)[C@@H](C2)N(CC2CC2)CC[C@]315`, the “μ Emax (%)” value (μ-opioid receptor [1]) is reported as 1.00% and the EC50 (μ-opioid receptor [1]) is reported as > 20 µM.

In the case of `CO[C@]12CC[C@@]3(C[C@H]1COCc1cc4ccccc4s1)[C@H]1Cc4ccc(O)c5c4[C@@]3(CCN1CC1CC1)[C@H]2O5`, the “κ Emax (%)” value (κ-opioid receptor; maximal effect relative to U69,593, Table 2) is reported as 117.3 ± 0.88%, the EC50 (κ-opioid receptor; read-out: κ EC50, κ GTP EC50, Table 2) is reported as 0.048 nM and the “μ Emax (%)” value (μ-opioid receptor [1]) is reported as 1.00%. For the same compound, the EC50 (μ-opioid receptor [1]) was > 20 µM, the “μ Emax (%)” value (μ-opioid receptor [2]; maximal effect relative to DAMGO, Table 2) was 21.7 ± 2.03% and the EC50 (μ-opioid receptor [2]; read-out: μ EC50, μ GTP EC50, Table 2) was 3.93 µM.
